Measured values reported in ChEMBL document CHEMBL4396963, “An exploration of solvent-front region high affinity moiety leading to novel potent ALK & ROS1 dual inhibitors with mutant-combating effects” (Bioorg Med Chem, 2019).

Protein sequences, listed by entry. Tags and fused reporters are not part of them. Lines headed by an entry give the natural chain unless they say otherwise; changes in a name come on top.
ALK tyrosine kinase receptor (Homo sapiens), Q9UM73, UniProt Q9UM73, whole entry L1196M, looked up: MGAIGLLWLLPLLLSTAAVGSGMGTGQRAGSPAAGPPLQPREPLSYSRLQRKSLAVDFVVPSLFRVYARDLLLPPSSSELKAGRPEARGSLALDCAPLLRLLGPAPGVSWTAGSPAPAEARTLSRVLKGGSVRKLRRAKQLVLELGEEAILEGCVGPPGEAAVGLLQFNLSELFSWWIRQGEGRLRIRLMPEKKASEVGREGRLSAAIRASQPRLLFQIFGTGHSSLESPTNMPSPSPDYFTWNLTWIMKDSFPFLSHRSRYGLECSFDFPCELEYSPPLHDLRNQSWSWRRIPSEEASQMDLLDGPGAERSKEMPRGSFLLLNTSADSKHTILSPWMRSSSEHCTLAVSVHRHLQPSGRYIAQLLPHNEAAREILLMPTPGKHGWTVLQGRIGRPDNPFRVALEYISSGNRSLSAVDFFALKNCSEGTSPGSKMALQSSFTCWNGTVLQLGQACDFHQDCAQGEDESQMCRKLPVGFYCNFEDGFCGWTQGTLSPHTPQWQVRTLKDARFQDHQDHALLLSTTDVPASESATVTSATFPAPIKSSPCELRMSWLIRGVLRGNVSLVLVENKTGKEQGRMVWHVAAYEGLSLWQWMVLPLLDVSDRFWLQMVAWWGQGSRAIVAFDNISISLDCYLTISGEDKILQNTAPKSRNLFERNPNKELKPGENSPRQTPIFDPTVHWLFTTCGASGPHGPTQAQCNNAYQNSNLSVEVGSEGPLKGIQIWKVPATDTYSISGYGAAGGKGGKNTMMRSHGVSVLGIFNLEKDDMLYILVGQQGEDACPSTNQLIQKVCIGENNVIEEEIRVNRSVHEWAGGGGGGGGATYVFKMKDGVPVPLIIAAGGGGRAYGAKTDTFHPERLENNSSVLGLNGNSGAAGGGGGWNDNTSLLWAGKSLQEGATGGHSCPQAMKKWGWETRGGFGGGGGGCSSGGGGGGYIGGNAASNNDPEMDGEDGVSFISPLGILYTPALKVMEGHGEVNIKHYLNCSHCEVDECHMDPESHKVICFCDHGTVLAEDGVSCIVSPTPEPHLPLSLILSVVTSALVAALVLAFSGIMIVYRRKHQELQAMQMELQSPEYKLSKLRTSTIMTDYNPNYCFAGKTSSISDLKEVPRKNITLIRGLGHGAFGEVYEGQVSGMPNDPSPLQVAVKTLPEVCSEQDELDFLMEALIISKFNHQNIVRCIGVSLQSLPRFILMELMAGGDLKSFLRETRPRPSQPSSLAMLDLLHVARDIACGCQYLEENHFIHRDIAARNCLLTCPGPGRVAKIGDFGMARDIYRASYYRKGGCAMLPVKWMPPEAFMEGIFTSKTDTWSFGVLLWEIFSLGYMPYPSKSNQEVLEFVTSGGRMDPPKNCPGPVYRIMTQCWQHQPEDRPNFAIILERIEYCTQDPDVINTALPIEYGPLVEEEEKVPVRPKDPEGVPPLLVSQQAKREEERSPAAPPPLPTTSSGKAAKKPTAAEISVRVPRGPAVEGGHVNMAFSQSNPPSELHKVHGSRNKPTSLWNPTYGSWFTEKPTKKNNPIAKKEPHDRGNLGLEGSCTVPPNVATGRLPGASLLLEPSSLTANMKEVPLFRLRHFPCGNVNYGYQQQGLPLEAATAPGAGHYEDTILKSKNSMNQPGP
ALK tyrosine kinase receptor (Homo sapiens), Q9UM73, UniProt Q9UM73, whole entry G1202R: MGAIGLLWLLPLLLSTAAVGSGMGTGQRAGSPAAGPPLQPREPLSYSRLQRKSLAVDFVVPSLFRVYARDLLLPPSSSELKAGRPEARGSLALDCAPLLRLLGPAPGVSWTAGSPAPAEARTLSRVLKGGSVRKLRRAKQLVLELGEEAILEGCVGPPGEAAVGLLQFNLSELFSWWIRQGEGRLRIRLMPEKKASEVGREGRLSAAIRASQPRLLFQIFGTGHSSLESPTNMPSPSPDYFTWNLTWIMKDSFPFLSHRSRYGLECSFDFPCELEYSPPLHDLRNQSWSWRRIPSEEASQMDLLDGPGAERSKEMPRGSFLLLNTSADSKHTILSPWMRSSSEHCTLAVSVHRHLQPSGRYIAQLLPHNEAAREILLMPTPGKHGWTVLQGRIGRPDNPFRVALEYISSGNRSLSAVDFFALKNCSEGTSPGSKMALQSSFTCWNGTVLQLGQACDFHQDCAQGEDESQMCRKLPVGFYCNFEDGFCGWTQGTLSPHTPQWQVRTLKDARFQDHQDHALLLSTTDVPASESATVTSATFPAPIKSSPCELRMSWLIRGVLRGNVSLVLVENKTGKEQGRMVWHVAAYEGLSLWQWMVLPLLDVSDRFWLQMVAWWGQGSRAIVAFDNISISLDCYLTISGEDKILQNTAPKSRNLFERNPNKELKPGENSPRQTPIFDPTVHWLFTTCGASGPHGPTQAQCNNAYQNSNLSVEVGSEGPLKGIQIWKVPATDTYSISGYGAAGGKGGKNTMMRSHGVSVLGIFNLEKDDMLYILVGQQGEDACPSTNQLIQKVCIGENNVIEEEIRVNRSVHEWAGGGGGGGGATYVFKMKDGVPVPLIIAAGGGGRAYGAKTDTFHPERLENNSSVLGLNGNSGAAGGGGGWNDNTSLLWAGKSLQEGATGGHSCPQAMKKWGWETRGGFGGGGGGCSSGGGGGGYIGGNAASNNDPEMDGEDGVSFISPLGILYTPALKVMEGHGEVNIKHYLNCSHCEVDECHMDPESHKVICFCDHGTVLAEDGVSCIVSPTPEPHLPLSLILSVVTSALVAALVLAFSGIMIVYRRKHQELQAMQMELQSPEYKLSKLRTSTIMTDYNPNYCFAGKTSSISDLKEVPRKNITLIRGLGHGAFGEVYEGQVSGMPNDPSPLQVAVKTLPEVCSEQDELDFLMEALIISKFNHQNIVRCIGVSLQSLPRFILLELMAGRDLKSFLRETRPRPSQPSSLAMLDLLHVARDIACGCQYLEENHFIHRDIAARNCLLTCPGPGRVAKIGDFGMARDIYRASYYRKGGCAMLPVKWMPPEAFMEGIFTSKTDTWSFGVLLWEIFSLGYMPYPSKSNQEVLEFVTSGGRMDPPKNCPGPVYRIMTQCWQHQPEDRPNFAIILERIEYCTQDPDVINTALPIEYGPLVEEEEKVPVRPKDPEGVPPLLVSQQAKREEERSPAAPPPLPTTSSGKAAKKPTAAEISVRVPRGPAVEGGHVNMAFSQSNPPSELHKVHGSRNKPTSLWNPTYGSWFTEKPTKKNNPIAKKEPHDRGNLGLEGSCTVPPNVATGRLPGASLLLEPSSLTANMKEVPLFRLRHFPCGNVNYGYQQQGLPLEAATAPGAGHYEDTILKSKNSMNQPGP
UniProt P08922: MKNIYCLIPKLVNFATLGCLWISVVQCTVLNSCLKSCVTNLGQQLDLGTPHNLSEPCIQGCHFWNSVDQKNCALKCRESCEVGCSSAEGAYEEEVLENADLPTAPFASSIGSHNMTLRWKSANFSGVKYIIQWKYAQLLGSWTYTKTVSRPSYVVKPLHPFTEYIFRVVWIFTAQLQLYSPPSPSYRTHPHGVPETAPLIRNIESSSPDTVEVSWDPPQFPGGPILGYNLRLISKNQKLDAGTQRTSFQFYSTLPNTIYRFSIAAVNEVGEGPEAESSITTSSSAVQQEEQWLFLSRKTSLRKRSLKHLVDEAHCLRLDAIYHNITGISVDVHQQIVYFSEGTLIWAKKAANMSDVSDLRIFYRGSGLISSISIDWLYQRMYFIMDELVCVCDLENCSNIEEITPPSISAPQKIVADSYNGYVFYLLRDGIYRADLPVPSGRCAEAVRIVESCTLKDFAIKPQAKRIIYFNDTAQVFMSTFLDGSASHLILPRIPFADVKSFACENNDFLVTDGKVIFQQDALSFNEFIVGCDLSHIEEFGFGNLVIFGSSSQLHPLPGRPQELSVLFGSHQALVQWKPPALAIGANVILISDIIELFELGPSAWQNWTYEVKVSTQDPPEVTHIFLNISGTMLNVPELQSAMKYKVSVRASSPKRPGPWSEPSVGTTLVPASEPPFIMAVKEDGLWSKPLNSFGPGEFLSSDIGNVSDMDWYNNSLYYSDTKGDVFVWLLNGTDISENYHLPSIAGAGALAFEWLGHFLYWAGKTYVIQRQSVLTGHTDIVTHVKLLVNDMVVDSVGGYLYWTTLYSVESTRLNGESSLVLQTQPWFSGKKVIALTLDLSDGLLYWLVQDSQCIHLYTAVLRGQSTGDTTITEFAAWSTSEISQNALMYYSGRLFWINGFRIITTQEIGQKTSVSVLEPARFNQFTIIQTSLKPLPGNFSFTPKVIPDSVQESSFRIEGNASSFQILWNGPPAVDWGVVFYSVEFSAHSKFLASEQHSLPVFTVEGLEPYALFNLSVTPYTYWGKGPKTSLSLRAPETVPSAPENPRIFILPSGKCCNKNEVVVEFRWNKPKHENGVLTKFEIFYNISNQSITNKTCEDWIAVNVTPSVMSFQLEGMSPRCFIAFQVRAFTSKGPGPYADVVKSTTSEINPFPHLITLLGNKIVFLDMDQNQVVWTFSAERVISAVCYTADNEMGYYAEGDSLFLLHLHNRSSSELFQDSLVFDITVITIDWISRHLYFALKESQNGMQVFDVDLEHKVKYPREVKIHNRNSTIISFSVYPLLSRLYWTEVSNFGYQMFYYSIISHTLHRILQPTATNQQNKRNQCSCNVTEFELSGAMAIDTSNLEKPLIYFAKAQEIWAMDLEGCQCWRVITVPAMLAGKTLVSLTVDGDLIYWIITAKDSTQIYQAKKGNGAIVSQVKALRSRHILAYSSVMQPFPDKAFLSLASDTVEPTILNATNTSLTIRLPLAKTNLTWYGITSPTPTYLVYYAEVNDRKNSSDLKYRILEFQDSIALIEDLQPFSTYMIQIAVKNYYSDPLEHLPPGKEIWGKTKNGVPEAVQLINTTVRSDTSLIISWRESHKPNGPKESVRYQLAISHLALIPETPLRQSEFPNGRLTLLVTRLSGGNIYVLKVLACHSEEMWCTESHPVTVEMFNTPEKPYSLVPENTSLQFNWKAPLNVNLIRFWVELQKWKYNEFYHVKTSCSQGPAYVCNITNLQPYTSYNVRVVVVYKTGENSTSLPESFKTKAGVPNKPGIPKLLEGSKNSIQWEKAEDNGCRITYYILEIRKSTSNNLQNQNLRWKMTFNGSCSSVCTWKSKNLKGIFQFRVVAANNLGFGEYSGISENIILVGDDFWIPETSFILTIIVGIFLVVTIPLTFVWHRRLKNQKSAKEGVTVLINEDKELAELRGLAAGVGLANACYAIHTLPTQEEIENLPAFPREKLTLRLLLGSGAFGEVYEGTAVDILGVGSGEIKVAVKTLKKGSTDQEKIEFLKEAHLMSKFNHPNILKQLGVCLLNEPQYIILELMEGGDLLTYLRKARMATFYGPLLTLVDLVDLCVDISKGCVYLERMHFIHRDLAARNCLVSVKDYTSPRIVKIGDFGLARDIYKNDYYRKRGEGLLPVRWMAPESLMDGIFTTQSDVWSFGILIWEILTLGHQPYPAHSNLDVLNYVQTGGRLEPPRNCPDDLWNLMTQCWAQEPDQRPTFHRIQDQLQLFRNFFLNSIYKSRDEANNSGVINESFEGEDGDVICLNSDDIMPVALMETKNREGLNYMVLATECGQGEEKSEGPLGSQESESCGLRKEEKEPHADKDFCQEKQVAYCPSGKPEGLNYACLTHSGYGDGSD

What was measured:
[1] = system: ALK tyrosine kinase receptor (Homo sapiens), Q9UM73 [L1196M]; experiment: Potency index, ratio of IC50 of ceritinib to IC50 of compound for inhibition of recombinant human N-terminal GST-tagged ALK (1058 to 1620 residues) cytoplasmic domain expressed in baculovirus expression system L1196M mutant using srctide as substrate incubated for 1 hr by mobility shift assay
[2] = target: Proto-oncogene tyrosine-protein kinase ROS (Homo sapiens, UniProt P08922); experiment: Potency index, ratio of IC50 of ceritinib to IC50 of compound for inhibition of recombinant human N-terminal GST-tagged ROS (1883 to 2347 residues) cytoplasmic domain expressed in baculovirus expression system using IRS1 as substrate incubated for 1 hr by mobility shift assay
[3] = system: ALK tyrosine kinase receptor (Homo sapiens), Q9UM73 [G1202R]; experiment: Potency index, ratio of IC50 of ceritinib to IC50 of compound for inhibition of recombinant human N-terminal GST-tagged ALK (1058 to 1620 residues) cytoplasmic domain G1202R mutant expressed in baculovirus expression system using srctide as substrate incubated for 1 hr by mobility shift assay

SMILES: COc1cc(NC(=O)N2CCOCC2)ccc1Nc1ncc(Cl)c(Nc2ccccc2NC(C)=O)n1
- Ratio IC50 [1]: 3.4
- Ratio IC50 [2]: 5.9
- Ratio IC50 [3]: 45
